Assay [1] has as its target T1, Zinc finger protein 131 (Homo sapiens) (UniProt P52739).
T1 sequence (whole entry): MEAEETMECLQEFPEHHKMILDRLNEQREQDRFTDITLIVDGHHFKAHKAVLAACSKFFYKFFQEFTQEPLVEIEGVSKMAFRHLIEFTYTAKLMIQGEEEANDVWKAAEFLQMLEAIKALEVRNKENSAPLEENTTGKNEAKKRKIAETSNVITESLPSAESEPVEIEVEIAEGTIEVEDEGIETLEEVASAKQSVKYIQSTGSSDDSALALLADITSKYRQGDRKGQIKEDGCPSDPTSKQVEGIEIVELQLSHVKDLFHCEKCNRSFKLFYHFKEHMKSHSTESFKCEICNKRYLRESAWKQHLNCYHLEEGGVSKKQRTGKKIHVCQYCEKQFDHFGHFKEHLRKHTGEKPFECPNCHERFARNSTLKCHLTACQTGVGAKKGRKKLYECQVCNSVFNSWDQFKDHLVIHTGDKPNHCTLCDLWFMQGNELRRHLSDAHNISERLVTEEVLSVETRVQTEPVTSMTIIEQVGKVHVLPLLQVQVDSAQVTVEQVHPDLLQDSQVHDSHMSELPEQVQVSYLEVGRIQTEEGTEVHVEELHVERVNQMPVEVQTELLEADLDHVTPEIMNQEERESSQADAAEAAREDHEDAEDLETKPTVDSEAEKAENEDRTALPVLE
The note with it: SUD4.

The chains behind the UniProt entries cited, without tags or fusion partners. Where a name states a change or a piece, a line headed by the entry shows the natural chain unless it says otherwise.
UniProt Q9UKI8: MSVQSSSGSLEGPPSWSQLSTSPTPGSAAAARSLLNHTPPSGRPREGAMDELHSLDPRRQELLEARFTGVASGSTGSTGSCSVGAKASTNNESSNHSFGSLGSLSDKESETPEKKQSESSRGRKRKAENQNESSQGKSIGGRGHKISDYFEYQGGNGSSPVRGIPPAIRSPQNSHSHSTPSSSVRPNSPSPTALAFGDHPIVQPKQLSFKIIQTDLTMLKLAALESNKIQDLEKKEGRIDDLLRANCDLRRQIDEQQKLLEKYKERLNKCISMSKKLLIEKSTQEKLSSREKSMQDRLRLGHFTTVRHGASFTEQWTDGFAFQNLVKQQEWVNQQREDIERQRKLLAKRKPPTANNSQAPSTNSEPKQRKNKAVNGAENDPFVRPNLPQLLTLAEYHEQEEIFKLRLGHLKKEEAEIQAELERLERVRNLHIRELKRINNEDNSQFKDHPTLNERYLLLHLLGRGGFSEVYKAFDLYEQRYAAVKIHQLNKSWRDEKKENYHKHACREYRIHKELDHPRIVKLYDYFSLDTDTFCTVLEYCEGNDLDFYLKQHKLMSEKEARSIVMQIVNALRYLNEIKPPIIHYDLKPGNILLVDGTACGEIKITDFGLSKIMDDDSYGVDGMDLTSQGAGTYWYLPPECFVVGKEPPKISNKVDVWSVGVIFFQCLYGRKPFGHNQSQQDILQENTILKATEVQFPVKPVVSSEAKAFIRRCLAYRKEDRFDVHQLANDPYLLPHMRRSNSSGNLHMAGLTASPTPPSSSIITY

The target in assay [2] is T2, Zinc finger and BTB domain-containing protein 40 (Homo sapiens) (UniProt Q9NUA8).
T2 sequence (whole entry): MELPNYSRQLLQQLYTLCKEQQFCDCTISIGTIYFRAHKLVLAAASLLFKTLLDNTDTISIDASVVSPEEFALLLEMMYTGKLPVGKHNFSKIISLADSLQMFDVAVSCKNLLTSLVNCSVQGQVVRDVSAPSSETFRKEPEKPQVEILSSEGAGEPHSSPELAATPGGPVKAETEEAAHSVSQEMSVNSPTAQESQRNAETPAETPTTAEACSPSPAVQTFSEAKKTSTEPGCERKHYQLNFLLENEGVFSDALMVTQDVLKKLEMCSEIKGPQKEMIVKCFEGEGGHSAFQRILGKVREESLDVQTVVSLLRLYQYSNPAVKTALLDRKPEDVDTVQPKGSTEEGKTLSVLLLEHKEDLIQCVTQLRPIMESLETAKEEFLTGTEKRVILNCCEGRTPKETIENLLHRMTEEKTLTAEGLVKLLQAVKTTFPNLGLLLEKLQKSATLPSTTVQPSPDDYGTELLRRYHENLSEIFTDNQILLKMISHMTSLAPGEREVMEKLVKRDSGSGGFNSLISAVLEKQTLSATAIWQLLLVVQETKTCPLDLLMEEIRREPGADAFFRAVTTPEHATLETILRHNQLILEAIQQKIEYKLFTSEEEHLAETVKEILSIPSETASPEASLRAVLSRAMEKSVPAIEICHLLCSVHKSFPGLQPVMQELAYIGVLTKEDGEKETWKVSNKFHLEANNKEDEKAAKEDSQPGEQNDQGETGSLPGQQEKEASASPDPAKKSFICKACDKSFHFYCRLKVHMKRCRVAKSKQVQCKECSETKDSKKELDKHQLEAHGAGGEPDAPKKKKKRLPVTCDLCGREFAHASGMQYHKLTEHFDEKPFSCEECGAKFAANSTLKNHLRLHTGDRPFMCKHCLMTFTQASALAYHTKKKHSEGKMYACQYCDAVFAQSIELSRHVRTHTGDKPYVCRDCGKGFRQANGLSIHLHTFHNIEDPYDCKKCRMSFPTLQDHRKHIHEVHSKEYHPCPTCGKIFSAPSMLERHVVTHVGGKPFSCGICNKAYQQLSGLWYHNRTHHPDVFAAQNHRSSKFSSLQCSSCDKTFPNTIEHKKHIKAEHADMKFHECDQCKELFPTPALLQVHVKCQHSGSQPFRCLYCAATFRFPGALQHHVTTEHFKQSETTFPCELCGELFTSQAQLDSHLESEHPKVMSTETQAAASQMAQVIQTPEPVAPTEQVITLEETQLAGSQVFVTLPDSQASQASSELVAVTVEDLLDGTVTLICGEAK
The following applies: SUD4.

The target of assay [3] is T3, Transcription regulator protein BACH2 (Homo sapiens) (UniProt Q9BYV9).
T3 sequence (whole entry): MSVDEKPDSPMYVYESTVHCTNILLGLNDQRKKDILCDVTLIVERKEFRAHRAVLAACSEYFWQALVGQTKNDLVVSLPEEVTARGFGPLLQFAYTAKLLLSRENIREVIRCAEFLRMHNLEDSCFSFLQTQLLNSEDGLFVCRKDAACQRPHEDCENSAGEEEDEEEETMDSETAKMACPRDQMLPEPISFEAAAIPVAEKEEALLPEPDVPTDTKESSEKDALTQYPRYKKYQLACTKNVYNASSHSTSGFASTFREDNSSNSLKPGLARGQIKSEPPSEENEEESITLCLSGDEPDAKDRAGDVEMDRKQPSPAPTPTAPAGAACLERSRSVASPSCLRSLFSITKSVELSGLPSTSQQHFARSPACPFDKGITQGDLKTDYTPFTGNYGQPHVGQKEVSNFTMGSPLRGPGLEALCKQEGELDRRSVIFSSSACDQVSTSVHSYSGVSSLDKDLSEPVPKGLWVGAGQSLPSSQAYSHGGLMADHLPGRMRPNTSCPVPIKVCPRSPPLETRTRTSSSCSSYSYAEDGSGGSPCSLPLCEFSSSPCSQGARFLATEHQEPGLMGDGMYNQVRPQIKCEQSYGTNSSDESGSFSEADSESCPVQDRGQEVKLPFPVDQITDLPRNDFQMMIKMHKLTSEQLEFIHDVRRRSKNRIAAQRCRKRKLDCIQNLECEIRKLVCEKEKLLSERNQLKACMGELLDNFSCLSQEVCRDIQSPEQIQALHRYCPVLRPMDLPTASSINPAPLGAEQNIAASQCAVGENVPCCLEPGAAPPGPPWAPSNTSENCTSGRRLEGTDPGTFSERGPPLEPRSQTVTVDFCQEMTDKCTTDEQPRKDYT
The note with it: OCI-Ly1.

Assay [4] addresses Serine/threonine-protein kinase tousled-like 1 (Homo sapiens) (UniProt Q9UKI8). The note with it: Compound concentration 20.0 uM.

For `C[C@@H]1CN(c2ncc(Cl)c(Nc3ccc4c(c3)n(CCC(C)(C)O)c(=O)n4C)n2)C[C@H](C)C1(F)F`, the figures for the Normalized abundances for DMSO in assay [1], in assay [2] and in assay [3] were 1850, 1220 and 521, respectively. In addition, the Normalized abundances for compound in assay [1] amounted to 1790; in assay [2], 1290; in assay [3], 520. Moreover, the Tm in assay [4] was 49 °C.

The values are drawn from ChEMBL document CHEMBL5058646 (2022).
